Structures can show the parent of a compound that is named as a salt. A value given as a limit tells only on which side of the number the result lay.

Sequences of proteins named here, by UniProt entry; tags and fusion partners are left off. A change or cut given only in a name is not applied to a line headed by its entry.
UniProt P20292: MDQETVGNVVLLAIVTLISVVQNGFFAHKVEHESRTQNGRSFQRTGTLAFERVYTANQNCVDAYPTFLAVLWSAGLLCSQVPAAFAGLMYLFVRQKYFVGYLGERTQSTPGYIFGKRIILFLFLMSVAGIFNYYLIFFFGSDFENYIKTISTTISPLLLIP

The target in this test is human FLAP (Homo sapiens (Human), UniProt P20292). Kind of test: FLAP binding assay (HTRF format). To be noted: human FLAP-containing Sf-9 membranes, 25 nM HTRF ligand, 2 h; average of runs; read-out: FLAP Binding wild type HTRF Ki. For orientation: TR-FRET usually uses a lanthanide donor and a delayed reading to cut background.
With `Cn1ccc(COc2ccc3nc([C@@H]4CCCC[C@@H]4C(=O)O)n(Cc4ccc(N5CCC(F)(F)CC5)cc4)c3c2)n1` (racemic) [Example 86, racemic cis-2-{1-[4-(4,4-Difluoropiperidin-1-yl)benzyl]-6-[(1-methyl-1H-pyrazol-3-yl)methoxy]-1H-benzimidazol-2-yl}cyclohexanecarboxylic acid], the Ki turned out to be 9.7 nM. The figure for `Cc1ccc(COc2ccc3nc(C4CCCC[C@H]4C(=O)O)n(Cc4ccc(N5CCCCC5)cc4)c3c2)nc1` (mixture of isomers) [Example 156, racemic cis-2-{6-[(5-Methylpyridin-2-yl)methoxy]-1-(4-piperidin-1-ylbenzyl)-1H-benzimidazol-2-yl}cyclohexanecarboxylic acid] is 6.8 nM; for `Cc1ccc(COc2ccc3nc([C@H]4CCCC[C@H]4C(=O)O)n(Cc4ccc(OC(F)(F)F)c(F)c4)c3c2)nc1` (racemic) [Example 20, racemic cis-2-{1-[3-Fluoro-4-(trifluoromethoxy)benzyl]-6-[(5-methylpyridin-2-yl)methoxy]-1H-benzimidazol-2-yl}cyclohexanecarboxylic acid] it is 8 nM. The figure for `Cn1ccc(COc2ccc3nc([C@@H]4CCCC[C@@H]4C(=O)O)n(Cc4ccc(OC(F)(F)F)c(F)c4)c3c2)n1` (racemic) [Example 55, racemic cis-2-{1-[3-Fluoro-4-(trifluoromethoxy)benzyl]-6-[(1-methyl-1H-pyrazol-3-yl)methoxy]-1H-benzimidazol-2-yl}cyclohexanecarboxylic acid] is 12 nM.

For the molecule `Cc1ccc(COc2ccc3nc(CC4(C(=O)O)CCCC4)n(Cc4ccc(Br)cc4)c3c2)nc1` [Example 9, 1-({1-(4-Bromobenzyl)-6-[(5-methylpyridin-2-yl)methoxy]-1H-benzimidazol-2-yl}methyl)cyclopentanecarboxylic acid as the TFA salt], the Ki worked out at 18 nM.

Consider `Cc1ccc(COc2cc(F)c3nc([C@@H]4CCCC[C@@H]4C(=O)O)n(Cc4ccc(Br)cc4)c3c2)nc1` (racemic) [Example 59, racemic cis-2-{1-(4-Bromobenzyl)-4-fluoro-6-[(5-methylpyridin-2-yl)methoxy]-1H-benzimidazol-2-yl}cyclohexanecarboxylic acid], for which the Ki was found to be 2.9 nM. The figure for `Cc1cnc(COc2ccc3nc([C@@H]4CCCC[C@@H]4C(=O)O)n(Cc4ccc(N5CCC(C)CC5)cc4F)c3c2)c(F)c1` (racemic) [Example 177, racemic cis-2-{1-[2-Fluoro-4-(4-methylpiperidin-1-yl)benzyl]-6-[(3-fluoro-5-methylpyridin-2-yl)methoxy]-1H-benzimidazol-2-yl}cyclohexanecarboxylic acid] is 1.1 nM; for `Cn1ccc(COc2ccc3nc(C4CCCC[C@H]4C(=O)O)n(Cc4ccc(Br)cc4)c3c2)n1` (mixture of isomers) [Example 40, racemic cis-2-{1-(4-Bromobenzyl)-6-[(1-methyl-1H-pyrazol-3-yl)methoxy]-1H-benzimidazol-2-yl}cyclohexanecarboxylic acid as the TFA salt] it is 3.9 nM; for `Cc1cnc(COc2ccc3nc([C@@H]4CCCC[C@@H]4C(=O)O)n(Cc4ccc(N5CCC(F)CC5)cc4F)c3c2)c(F)c1` (stereo in doubt) [Example 173] it is 0.82 nM.

As to `Cc1ccc(COc2ccc3nc([C@@H]4CCCC[C@@H]4C(=O)O)n(Cc4ccc(OC(F)(F)F)c(C)c4)c3c2)nc1` (racemic) [Example 109, racemic cis-2-{6-[(5-Methylpyridin-2-yl)methoxy]-1-[3-methyl-4-(trifluoromethoxy)benzyl]-1H-benzimidazol-2-yl}cyclohexanecarboxylic acid], the Ki came to 2.6 nM. The figure for `Cc1ccc(Cn2c([C@@H]3CCCC[C@@H]3C(=O)O)nc3ccc(OCc4ccc(C)cn4)cc32)cc1` (racemic) [Example 119, racemic cis-2-{1-(4-Methylbenzyl)-6-[(5-methylpyridin-2-yl)methoxy]-1H-benzimidazol-2-yl}cyclohexanecarboxylic acid] is 6.6 nM; for `Cc1ccc(COc2cc(Cl)c3nc(C4CCCC[C@@H]4C(=O)O)n(Cc4ccc(Br)cc4)c3c2)nc1` (mixture of isomers) [Example 77, racemic trans-2-{1-(4-Bromobenzyl)-4-chloro-6-[(5-methylpyridin-2-yl)methoxy]-1H-benzimidazol-2-yl}cyclohexanecarboxylic acid] it is 19 nM; for `Cc1ccc(COc2ccc3nc(C4CCCC[C@@H]4C(=O)O)n(Cc4ccc(Br)cc4)c3c2)nc1` (single isomer, unassigned) [Example 6] it is 390 nM. Turning to `Cc1ccc(COc2ccc3nc([C@H]4CCCC[C@H]4C(=O)O)n(Cc4ccc(OC(F)(F)F)c(Cl)c4)c3c2)nc1` (racemic) [Example 32, racemic cis-2-{1-[3-Chloro-4-(trifluoromethoxy)benzyl]-6-[(5-methylpyridin-2-yl)methoxy]-1H-benzimidazol-2-yl}cyclohexanecarboxylic acid], the Ki turned out to be 5.6 nM. For `Cc1ccc(COc2ccc3nc([C@H]4CCCC[C@H]4C(=O)O)n(Cc4ccc(Br)cc4F)c3c2)nc1` (stereo in doubt) [Example 12, (1S*,2R*)-2-{1-(4-Bromo-2-fluorobenzyl)-6-[(5-methylpyridin-2-yl)methoxy]-1H-benzimidazol-2-yl}cyclohexanecarboxylic acid] the value was around 2000 nM. The figure for `Cc1ccc(COc2cc(F)c3nc([C@H]4CCCC[C@@H]4C(=O)O)n(Cc4ccc(Br)cc4)c3c2)nc1` (racemic) [Example 62, racemic trans-2-{1-(4-Bromobenzyl)-4-fluoro-6-[(5-methylpyridin-2-yl)methoxy]-1H-benzimidazol-2-yl}cyclohexanecarboxylic acid] is 8.1 nM; for `Cc1ccc(COc2cc(F)c3nc(CC(C)(C)C(=O)O)n(Cc4ccc(Br)cc4)c3c2)nc1` [Example 60, 3-{1-(4-Bromobenzyl)-4-fluoro-6-[(5-methylpyridin-2-yl)methoxy]-1H-benzimidazol-2-yl}-2,2-dimethylpropanoic acid] it is 51 nM; for `CCC(CC)(Cc1nc2ccc(OCc3ccn(C)n3)cc2n1Cc1ccc(N2CCCC(F)(F)C2)cc1)C(=O)O` [Example 155, 2-({1-[4-(3,3-Difluoropiperidin-1-yl)benzyl]-6-[(1-methyl-1H-pyrazol-3-yl)methoxy]-1H-benzimidazol-2-yl}methyl)-2-ethylbutanoic acid] it is around 620 nM.

`Cc1ccc(Cn2c(C3CCCC[C@H]3C(=O)O)nc3c(F)cc(OCc4ccc(C)cn4)cc32)cc1` (mixture of isomers) [Example 68, racemic cis-2-{4-Fluoro-1-(4-methylbenzyl)-6-[(5-methylpyridin-2-yl)methoxy]-1H-benzimidazol-2-yl}cyclohexanecarboxylic acid as the TFA salt]: the Ki is 14 nM.

Consider `Cc1ccc(COc2ccc3nc([C@@H]4[C@H](C(=O)O)C4(C)C)n(Cc4ccc(Br)cc4F)c3c2)nc1` (stereo in doubt) [Example 17, (1R*,3S*)-3-{1-(4-Bromo-2-fluorobenzyl)-6-[(5-methylpyridin-2-yl)methoxy]-1H-benzimidazol-2-yl}-2,2-dimethylcyclopropanecarboxylic acid], for which the Ki was above 10000 nM. For `Cc1ccc(COc2ccc3nc([C@H]4CCCC[C@@H]4C(=O)O)n(Cc4c(F)cc(Br)cc4F)c3c2)nc1` (racemic) [Example 140, racemic trans-2-{1-(4-Bromo-2,6-difluorobenzyl)-6-[(5-methylpyridin-2-yl)methoxy]-1H-benzimidazol-2-yl}cyclohexanecarboxylic acid] the value was 3 nM; for `CCC(CC)(Cc1nc2ccc(OCc3ccn(C)n3)cc2n1Cc1ccc(Br)cc1)C(=O)O` [Example 42, 2-({1-(4-Bromobenzyl)-6-[(1-methyl-1H-pyrazol-3-yl)methoxy]-1H-benzimidazol-2-yl}methyl)-2-ethylbutanoic acid as the TFA salt], 32 nM. The figure for `Cc1ccc(COc2ccc3nc([C@@H]4CCCC[C@H]4C(=O)O)n(Cc4ccc(Br)cc4)c3c2)nc1` (single isomer, unassigned) [Example 7] is 2.2 nM; for `Cc1ccc(COc2ccc3nc(C4CCCC[C@H]4C(=O)O)n(Cc4ccc(N5CCCC(F)(F)C5)cc4)c3c2)nc1` (mixture of isomers) [Example 153, racemic cis-2-{1-[4-(3,3-Difluoropiperidin-1-yl)benzyl]-6-[(5-methylpyridin-2-yl)methoxy]-1H-benzimidazol-2-yl}cyclohexanecarboxylic acid] it is 4.4 nM; for `Cc1ccc(COc2ccc3nc([C@@H]4CCCC[C@@H]4C(=O)O)n(Cc4ccc(N5CC(F)(F)C5)cc4F)c3c2)nc1` (stereo in doubt) [Example 167, (1S*,2R*)-2-{1-[4-(3,3-Difluoroazetidin-1-yl)-2-fluorobenzyl]-6-[(5-methylpyridin-2-yl)methoxy]-1H-benzimidazol-2-yl}cyclohexanecarboxylic acid] it is 2.2 nM. The figure for `CCC(CC)(Cc1nc2ccc(OCc3ccn(C)n3)cc2n1Cc1ccc(Br)cc1F)C(=O)O` [Example 58, 2-({1-(4-Bromo-2-fluorobenzyl)-6-[(1-methyl-1H-pyrazol-3-yl)methoxy]-1H-benzimidazol-2-yl}methyl)-2-ethylbutanoic acid] is 58 nM; for `Cc1ccc(COc2cc(F)c3nc(C4[C@H](C(=O)O)C4(C)C)n(Cc4ccc(OC(F)(F)F)cc4)c3c2)nc1` (mixture of isomers) [Example 74, racemic cis-3-{4-Fluoro-6-[(5-methylpyridin-2-yl)methoxy]-1-[4-(trifluoromethoxy)benzyl]-1H-benzimidazol-2-yl}-2,2-dimethylcyclopropanecarboxylic acid as the TFA salt] it is 75 nM. As to `Cc1ccc(COc2ccc3nc([C@H]4CCCC[C@@H]4C(=O)O)n(Cc4ccc(OC(F)(F)F)cc4F)c3c2)nc1` (racemic) [Example 21, racemic trans-2-{1-[2-Fluoro-4-(trifluoromethoxy)benzyl]-6-[(5-methylpyridin-2-yl)methoxy]-1H-benzimidazol-2-yl}cyclohexanecarboxylic acid], the Ki was 9 nM.

What is called Ki is the dissociation constant of the complex between target and ligand, obtained from inhibition or displacement.

For the origin of these results see US8952177B2 (Janssen Pharmaceutica NV, priority 2013, dated 2015).
